Bounds are passed on as bounds.

For series [1] the following is noted: rat, in vivo.
For series [2] the following is noted: rat, in vivo. This is another data set of the same source.
For series [3] the following is noted: rat, in vivo, sc. How it is done: Using normal rats (each 4 rats) which were in the same week old in initiation of administration of elcatonin as in Examples 1 and 2, dose of elcatonin not varying serum calcium value was examed in the case of single subcutaneous administration (administered over 10 seconds). […] Measurement of serum calcium value was conducted using calcium C-test wako (Wako).

In the case of “1-butylic acid-7-(L-2-aminobutylic acid)-26-L-aspartic acid-27-L-valine-29-L-alaninecalcitonin [elcatonin]”, the “change in body weight compared with vehicle administration group” value in series [1] is listed as “no change in body weight”. Moreover, the body weight increase entry in series [2] was “suppression of body weight increase became remarkable”. Further, in series [3], the “dose at which serum calcium value changed” value is no less than 150 mU/kg.

(Values after US20070015702A1, “Method of treatment and/or prevention of neuropathic pain” (Asahi Kasei Pharma Corporation, priority 2005, published 2007).)
